The values below come from ChEMBL document CHEMBL1121803, “4-aryl-4-aminocyclohexanones and their derivatives, a novel class of analgesics. 3. m-Hydroxyphenyl derivates” (1981).

Experiment [1] is filed under the species Mus musculus. Kind of experiment: Sedation test by employing inclined screen test in CF-1 female mice.
The species entered for experiment [2] is Mus musculus. Briefly: Antagonistic activity by measuring blockade of morphine-induced elevation of tail flick latency in CF-1 female mice.

“And” between values parts separate entries of the source, which are not always exact repeats. Equal entries are not always repeated. Some results are limits rather than exact numbers.

Regarding `CN(CC1CC1)C1(c2cccc(O)c2)CCC2(CC1)OCCO2`, the median effective dose (ED50) in the experiment filed under Mus musculus [1] and in the experiment filed under Mus musculus [2] was more than 100 mg/kg in each case.

Turning to `CN(C)C1(c2cccc(O)c2)CCC2(CC1)OCC(C)(C)CO2`, the median effective dose (ED50) in the experiment listed under Mus musculus [1] and in the experiment listed under Mus musculus [2] was more than 100 mg/kg each time.

As to `CN(CCOc1ccccc1)C1(c2cccc(O)c2)CCC2(CC1)OCCO2`, the median effective dose (ED50) in the experiment filed under Mus musculus [1] and in the experiment filed under Mus musculus [2] was more than 100 mg/kg each time.

For the compound `CN(C)C1(c2cccc(O)c2)CCC(O)(Cc2ccccc2)CC1` (configuration not stated), the median effective dose (ED50) was > 100 mg/kg and 71 mg/kg in the experiment filed under Mus musculus [1]; more than 100 mg/kg in the experiment filed under Mus musculus [2].

Take `CCCCN(C)C1(c2cccc(O)c2)CCC2(CC1)OCCO2`: the ED50 in the experiment filed under Mus musculus [1] and in the experiment listed under Mus musculus [2] was more than 100 mg/kg in each case.

For the compound `CN(C)C1(c2cccc(O)c2)CCC(=O)CC1`, the median effective dose (ED50) was more than 200 mg/kg in the experiment filed under Mus musculus [1] and 40 mg/kg in the experiment filed under Mus musculus [2].

Turning to `CN(C)C1(c2cccc(O)c2)CCC(C)(O)CC1` (configuration not stated), the ED50 in the experiment filed under Mus musculus [1] was more than 200 mg/kg; in the experiment listed under Mus musculus [2] it was more than 100 mg/kg.

Turning to `C=CCN(C)C1(c2cccc(O)c2)CCC2(CC1)OCCO2`, the median effective dose (ED50) in the experiment filed under Mus musculus [1] is more than 200 mg/kg; in the experiment listed under Mus musculus [2] it was 141 mg/kg.

On to `CCCN(C)C1(c2cccc(O)c2)CCC2(CC1)OCCO2`, for which the values for the ED50 in the experiment filed under Mus musculus [1] and in the experiment filed under Mus musculus [2] were more than 100 mg/kg and 79 mg/kg, respectively.

In the case of `CN(C)C1(c2cccc(O)c2)CCC2(CC1)OCC(c1ccccc1)CO2` (configuration not stated), the 50% effective dose (ED50) in the experiment listed under Mus musculus [1] and in the experiment filed under Mus musculus [2] was more than 100 mg/kg in each case.

Regarding `CN(C)C1(c2cccc(O)c2)CCC(O)CC1` (configuration not stated), the ED50 in the experiment listed under Mus musculus [1] is more than 100 mg/kg; in the experiment listed under Mus musculus [2], 18 mg/kg.

In the case of `CN(C)C1(c2cccc(O)c2)CCC2(CC1)OCCO2`, the 50% effective dose (ED50) in the experiment listed under Mus musculus [1] is more than 100 mg/kg; in the experiment listed under Mus musculus [2], 13 mg/kg.

In the case of `CCCCCN(C)C1(c2cccc(O)c2)CCC2(CC1)OCCO2`, the ED50 in the experiment listed under Mus musculus [1] and in the experiment filed under Mus musculus [2] was more than 25 mg/kg each time.

In the case of `CC(C)CN(C)C1(c2cccc(O)c2)CCC2(CC1)OCCO2`, the median effective dose (ED50) in the experiment listed under Mus musculus [1] and in the experiment filed under Mus musculus [2] was more than 25 mg/kg throughout.

Consider `C=CCC1COC2(CCC(c3cccc(O)c3)(N(C)C)CC2)OC1` (configuration not stated), for which the ED50 in the experiment filed under Mus musculus [1] and in the experiment filed under Mus musculus [2] was more than 100 mg/kg each time.

Regarding `CN(C)C1(c2cccc(O)c2)CCC2(CC1)OCCCO2`, the ED50 was more than 100 mg/kg in the experiment filed under Mus musculus [1] and 32 mg/kg in the experiment filed under Mus musculus [2].

For orientation: ED50 means the midpoint of the dose-response relation. Higher therefore signals a need for a large dose.
